# B1: native enzyme: human aspartate N-acetyltransferase without the MBP fusion domain (protein, UniProt Q8N9F0 1-302, looked up)
# N-acetylaspartate synthetase: MHCGPPDMVCETKIVAAEDHEALPGAKKDALLAAAGAMWPPLPAAPGPAAAPPAPPPAPVAQPHGGAGGAGPPGGRGVCIREFRAAEQEAARRIFYDGIMERIPNTAFRGLRQHPRAQLLYALLAALCFAVSRSLLLTCLVPAALLGLRYYYSRKVIRAYLECALHTDMADIEQYYMKPPGSCFWVAVLDGNVVGIVAARAHEEDNTVELLRMSVDSRFRGKGIAKALGRKVLEFAVVHNYSAVVLGTTAVKVAAHKLYESLGFRHMGASDHYVLPGMTLSLAERLFFQVRYHRYRLQLREE
# Assay: Solubility on concentrating the purified enzyme
# Assay type: physicochemical
# Conditions: attempts to concentrate, without MBP fusion domain
# Procedure: By contrast, attempts to concentrate the native enzyme without the MBP fusion domain led to precipitation at protein concentrations less than 1 mg/ml. The MBP-ANAT fusion enzyme was stored at 4° C. for one week and the enzyme activity was assayed each day to evaluate the enzyme stability.
molecule,measurement,value
B1,protein concentration at which precipitation occurs,less than 1 mg/ml
